# In patent publication US12583873B2, “Amino acid mineral complex having immunopotentiating activity and composition for foods, pharmaceuticals, or feeds comprising same” (priority 2018, dated 2026):
# Settings: pig, in vivo
substance,measurement,value
zinc-aspartic acid complex [Comparative Example 3],Zinc,180ab μg/dL
same,Zinc content in blood as compared to CON 1 and CON 2,increased significantly
zinc-aspartic acid complex [Example 1-1],Zinc,158b μg/dL
same,Zinc content in blood as compared to CON 1 and CON 2,increased significantly
